# Measurements: PMC12502093 (RSC Advances, 2025)
# Amino acid sequences for entries named in this document (tags omitted).
# UniProt P40763, whole entry: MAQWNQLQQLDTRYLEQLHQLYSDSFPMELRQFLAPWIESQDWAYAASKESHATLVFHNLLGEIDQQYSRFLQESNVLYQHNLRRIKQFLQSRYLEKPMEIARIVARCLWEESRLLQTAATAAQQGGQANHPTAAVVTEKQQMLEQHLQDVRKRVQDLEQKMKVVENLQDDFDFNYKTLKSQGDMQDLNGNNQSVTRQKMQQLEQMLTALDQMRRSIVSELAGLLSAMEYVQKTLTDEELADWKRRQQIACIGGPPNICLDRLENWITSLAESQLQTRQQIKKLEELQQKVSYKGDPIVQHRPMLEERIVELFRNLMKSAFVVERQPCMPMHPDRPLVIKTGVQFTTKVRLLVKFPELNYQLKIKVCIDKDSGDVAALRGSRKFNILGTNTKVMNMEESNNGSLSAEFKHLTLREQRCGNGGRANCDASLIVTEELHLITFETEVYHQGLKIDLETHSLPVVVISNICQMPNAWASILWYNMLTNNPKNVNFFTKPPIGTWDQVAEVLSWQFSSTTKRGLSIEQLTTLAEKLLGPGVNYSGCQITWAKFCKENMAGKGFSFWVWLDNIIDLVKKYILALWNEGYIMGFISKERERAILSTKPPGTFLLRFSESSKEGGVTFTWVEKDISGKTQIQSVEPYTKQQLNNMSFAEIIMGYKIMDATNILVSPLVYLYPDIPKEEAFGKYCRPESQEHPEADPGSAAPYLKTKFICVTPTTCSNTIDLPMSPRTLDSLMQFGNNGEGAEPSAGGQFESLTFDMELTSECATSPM
# Target: STAT3 (Homo sapiens, UniProt P40763)
# Assay: STAT3 tyrosine phosphorylation inhibition
# Format: biochemical
# Settings: STAT3 phosphorylation IC50 (μM) (mean ± SD), ELISA, eight dilutions 100-0.03 μM
smiles,measurement,value
"C[C@H]1COC2=C1C(=O)C(=O)c1c2ccc2c1CCCC2(C)C [Cryptotanshinone, reference compound]",IC50,3.52 ± 0.75 µM
